Experiments:
[1] = system: MDA-MB-231 and SK-OV-3 cancer cell lines; assay: Role of caspase-8, -3 and -9 (siRNA, caspase inhibitors) in activity of Smac mimetics
[2] = system: Sensitive cancer cell lines; assay: Secreted TNFα in cell culture medium (ELISA), sensitive lines
[3] = system: resistant cancer cell lines (MDA-MB-453 breast, DU-145 prostate, MDA-MB-435 melanoma); assay: Secreted TNFα in cell culture medium (ELISA), resistant lines
[4] = system: MDA-MB-231, MALME-3M and SK-OV-3 cell lines; assay: Cell death induction with TNFα or TRAIL neutralizing antibody
[5] = system: cIAP-1 in cancer cell lines; assay: Induction of cIAP-1 degradation in cancer cells; format: cell-based
[6] = system: sensitive cell lines (MDA-MB-231, SK-OV-3); assay: cIAP-1/2 removal and apoptosis induction by SM-122; details: 100 nM
[7] = system: sensitive cancer cell lines (MDA-MB-231, MALME-3M, SK-OV-3); assay: XIAP knockdown by siRNA with exogenous TNFα, cell death; details: presence of exogenous TNFα
[8] = system: HCT116 XIAP^+/+ and XIAP^−/− isogenic cell lines; assay: HCT116 XIAP+/+ and XIAP-/- isogenic cell lines, Smac mimetics with TNFα; format: cell-based; details: for caspase-3 activation, PARP cleavage and cell growth inhibition: 100-1,000 nM with exogenous TNFα
[9] = system: XIAP stably transfected Jurkat leukemia cell line (XIAP-JK) and vector control cell line (VEC-JK); assay: XIAP-overexpressing Jurkat cells, Smac mimetics with TNFα
[10] = system: MDA-MB-231 xenograft tumor tissues; assay: cIAP-1 degradation and apoptosis in MDA-MB-231 xenograft tumor and normal tissues; format: in vivo, mice
[11] = 100 and 1,000 nM, XIAP-JK cells

## CN[C@@H](C)C(=O)N[C@H]1CCCC[C@H]2CC[C@@H](C(=O)NC(c3ccccc3)c3ccccc3)N2C1=O
[1]
  effect of knockdown of caspase-3 and -8 on activity: markedly attenuated
  effect of knockdown of caspase-9 on activity: minimal effect
[2]
  secretion of TNFα: further enhanced
[3]
  induction of TNFα: failed to induce detectable levels of TNFα
[4]
  cell death induction in presence of neutralizing antibodies: effectively blocked by a TNFα, but not by a TRAIL, neutralizing antibody
[5]; 10-100 nM, sensitive cancer cell lines
  cIAP-1 level / degradation: effectively induced degradation of cIAP-1
[5]; resistant cancer cell lines
  cIAP-1 degradation: rapid cIAP-1 degradation
[6]
  apoptosis induction: minimal apoptosis
  levels of cIAP-1 and cIAP-2: markedly decreased
[6]; excess exogenous TNFα
  effect of exogenous TNFα on cell killing: minimal effect
[7]
  sensitization by knockdown of XIAP: dramatically sensitized
[8]; XIAP+/+ cell line
  caspase-3 activation, PARP cleavage and cell growth inhibition: modest effect
[8]; XIAP-/- cell line
  caspase-3 activation, PARP cleavage and cell growth inhibition: highly effective
[8]; 100-1,000 nM, both cell lines
  cIAP-1 degradation: effectively induced cIAP-1 degradation
[8]; both cell lines
  sensitivity as a single agent: resistant
[9]; [11]
  apoptosis induction in combination with TNFα: ineffective in induction of apoptosis
  cIAP-1 degradation: efficiently and rapidly degraded cIAP-1
[9]; VEC-JK cell line
  sensitivity in combination with TNFα: sensitive
[9]; XIAP-JK cell line
  sensitivity in combination with TNFα: extremely resistant
[10]; single dose 100 mg/kg iv
  PARP cleavage in tumor tissues: minimal effect
  cIAP-1 degradation in tumor tissues: effectively induces cIAP-1 degradation
[10]; single dose iv
  near maximum tolerated dose: 100 mg/kg

From patent publication US8202902B2
